From ChEMBL document CHEMBL4680309, “Discovery of a potent β-catenin destabilizer for overcoming the resistance of 5-fluorouracil in colorectal cancer” (Bioorg Med Chem, 2021)

Assays:
Assay type in all cases: functional, cell-based
HCT-8 = assay: Cytotoxicity against human HCT-8 cells assessed as reduction in cell viability incubated for 72 hrs by SRB assay
HT-29 = assay: Cytotoxicity against human HT-29 cells assessed as reduction in cell viability incubated for 72 hrs by SRB assay
RKOE6 = assay: Cytotoxicity against human RKOE6 cells assessed as reduction in cell viability incubated for 72 hrs by SRB assay
SW480 = assay: Cytotoxicity against human SW480 cells assessed as reduction in cell viability incubated for 72 hrs by SRB assay
LoVo = assay: Cytotoxicity against human LoVo cells assessed as reduction in cell viability incubated for 72 hrs by SRB assay
HCT-116 = assay: Cytotoxicity against human HCT-116 cells assessed as reduction in cell viability incubated for 72 hrs by SRB assay

Measured: inhibition

C=C1C(=O)O[C@@H]2CCCn3cccc3[C@@H]12
active: HCT-8 = Dose-dependent effect | HT-29 = Dose-dependent effect | RKOE6 = Dose-dependent effect | SW480 = Dose-dependent effect | LoVo Dose-dependent effect | HCT-116 = Dose-dependent effect
